Measurements published in paper PMC6201908, “Affinity, potency, efficacy, and selectivity of neurokinin A analogs at human recombinant NK2 and NK1 receptors” (PLoS ONE, 2018).

Sequences of proteins named here, by UniProt entry; tags and fusion partners are left off.
UniProt P21452, whole entry: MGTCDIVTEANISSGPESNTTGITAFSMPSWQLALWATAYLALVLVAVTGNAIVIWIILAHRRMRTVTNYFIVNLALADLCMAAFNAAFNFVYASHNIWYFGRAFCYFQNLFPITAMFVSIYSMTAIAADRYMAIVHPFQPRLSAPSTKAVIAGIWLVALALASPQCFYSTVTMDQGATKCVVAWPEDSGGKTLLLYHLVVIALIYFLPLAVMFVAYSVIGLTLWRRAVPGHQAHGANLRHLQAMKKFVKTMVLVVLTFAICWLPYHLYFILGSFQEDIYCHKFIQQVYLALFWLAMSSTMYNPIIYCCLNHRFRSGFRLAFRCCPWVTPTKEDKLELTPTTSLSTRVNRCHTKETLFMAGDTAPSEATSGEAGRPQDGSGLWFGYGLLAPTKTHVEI

What was measured:
[1] = molecular target: T1, human recombinant NK2 receptors (Homo sapiens, UniProt P21452)
Description: Human recombinant NK2 and NK1 receptors were generated using stably transfected CHO cells (CHO-hNK2 and CHO-hNK1, respectively). Human NK2 or NK1 receptor expressing vectors from Genecopeia (Rockville, USA) were transfected in CHO cells using the standard FuGENE protocol and cells were selected using 450 μg/mL geneticin (G418). Clones expressing the receptors were selected by functional coupling to calcium using FLIPR and a single clone for each receptor subtype was selected for expansion and stable cell line generation. Cells were cultured in a humidified incubator with 5% CO2 in F12K medium containing 10% heat inactivated FBS and 450 μg/mL geneticin and passaged on reaching 80–90% confluence.
The agonist efficacy of the test compounds at recombinant human NK1 or NK2 receptors expressed in CHO cells was assessed by measuring the intracellular calcium response using the calcium-sensitive dye Fluo-4 AM (Eugene, OR, USA) and a Fluorometric Imaging Plate Reader (FLIPR, Molecular Devices, CA, USA). CHO-hNK1 and CHO-hNK2 cells were seeded into black walled clear-bottom 384-well plates at a density of 10,000 and 15,000 cells per well in 50 μL culture media, respectively, and grown overnight at 37°C in a humidified CO2-incubator. […] Loaded cell plates were transferred to the FLIPR and calcium responses were monitored as described below. […]

[2] = molecular target: T1, human recombinant NK2 receptors; experiment: cell-based; conditions: CHO-hNK2 cells; read-out: NK2 EC50 cAMP stimulation
Description: CHO-hNK2 and CHO-hNK1 cells were transiently transfected with a CRE-LUC reporter construct using Lipofectamine 2000. At 24 h post-transfection, cells were plated at a density of 20,000 cells/well in a 96-well culture plate. […] Luciferase expression was measured after 5 h of incubation at 37°C (in the presence of 5% CO2) by adding Firefly Luciferase reagent, followed by Renilla Luciferase reagent. Luminescence was measured by using an Envision Multilabel flash lamp reader after addition of the first and second reagents. Data were normalized by calculating the ratio of the Firefly luminescence from the CRE reporter to the Renilla luminescence from the control Renilla Luciferase vector.

Q: For `CSCC[C@H](NC(=O)[C@H](CC(C)C)NC(=O)CNC(=O)[C@H](Cc1ccccc1)NC(=O)[C@H](Cc1ccccc1)NC(=O)[C@H](CCC(N)=O)NC(=O)[C@H](CCC(N)=O)NC(=O)[C@@H]1CCCN1C(=O)[C@H](CCCCN)NC(=O)[C@@H]1CCCN1C(=O)[C@@H](N)CCCN=C(N)N)C(N)=O` [Substance P, reference compound], which “Agonist efficacy, intracellular calcium response (in words)” value [1] is on record?
A: Its value is “full agonists”.

Q: And the EC50 [2]?
A: The EC50 was 3.71 nM.
